Reference: EP4840843A1, “PTEROSTILBENE COMPOUND, PHARMACEUTICAL COMPOSITION AND USE THEREOF IN PREPARATION OF ANTI-INFLAMMATORY DRUGS” (dated 2026)

Assays:
[1] = Distribution experiment in brain and other tissues (LC/MS); conditions: for AUC0-t, Brain / AUC0-t, Liver / AUC0-t, Lung / AUC0-t, Pancreas / AUC0-t, Plasma: single dose
[2] = Pharmacokinetic study in plasma (LC/MS)
[3] = system: DSS-induced mouse enteritis model; assay: DSS-induced mouse enteritis model; conditions: 100 mg/kg, p.o.×9, DSS drinking water for 9 days, x±s
[4] = Stability test (high temperature, high humidity, strong light; related substances by HPLC)
[5] = High Humidity 25 °C RH 90% ± 5%, 5 Days
[6] = High Humidity 25 °C RH 90% ± 5%, 10 Days
[7] = High Temperature 60 °C, 10 Days
[8] = Light Exposure 4500 lx ± 500 lx, 5 Days
[9] = Light Exposure 4500 lx ± 500 lx, 10 Days

COc1cc(/C=C/c2ccc(OCCN(C)C)cc2)cc(OC)c1
Fold ( AUCtissue/AUCplasma ), Brain ([1]; iv (20mg/kg)): 49 | Fold ( AUCtissue/AUCplasma ), Liver ([1]; iv (20mg/kg)): 104 | Fold ( AUCtissue/AUCplasma ), Lung ([1]; iv (20mg/kg)): 26 | Fold ( AUCtissue/AUCplasma ), Pancreas ([1]; iv (20mg/kg)): 41 | AUC0-t, Brain ([1]; iv (20mg/kg)): 55058 ng·h/g | AUC0-t, Liver ([1]; iv (20mg/kg)): 117789 ng·h/g | AUC0-t, Lung ([1]; iv (20mg/kg)): 29414 ng·h/g | AUC0-t, Pancreas ([1]; iv (20mg/kg)): 46349 ng·h/g | AUC0-t, Plasma ([1]; iv (20mg/kg)): 1.134 µg·h/mL | Fold ( AUCtissue/AUCplasma ), Brain ([1]; po (100mg/kg)): 27 | Fold ( AUCtissue/AUCplasma ), Liver ([1]; po (100mg/kg)): 506 | Fold ( AUCtissue/AUCplasma ), Lung ([1]; po (100mg/kg)): 52 | Fold ( AUCtissue/AUCplasma ), Pancreas ([1]; po (100mg/kg)): 132 | AUC0-t, Brain ([1]; po (100mg/kg)): 42230 ng·h/g | AUC0-t, Liver ([1]; po (100mg/kg)): 802349 ng·h/g | AUC0-t, Lung ([1]; po (100mg/kg)): 82118 ng·h/g | AUC0-t, Pancreas ([1]; po (100mg/kg)): 209482 ng·h/g | AUC0-t, Plasma ([1]; po (100mg/kg)): 1.585 µg·h/mL | Cl ([2]; iv (20mg/kg)): 5.945 L/h/kg | MRT0-t ([2]; iv (20mg/kg)): 1.15 h | Vd ([2]; iv (20mg/kg)): 27.403 L/kg | AUC0-t ([2]; iv (20 mg/kg), plasma): 1.134 µg·h/mL | AUC0-∞ ([2]; iv (20 mg/kg), plasma): 1.135 µg·h/mL | C0 ([2]; iv (20 mg/kg), plasma): 1.516 µg/mL | T1/2 ([2]; iv (20 mg/kg), plasma): 3.195 h | MRT0-t ([2]; po (100mg/kg)): 4.91 h | F ([2]; po(100mg/kg) vs iv (20 mg/kg)): 27.94% | AUC0-t ([2]; po(100mg/kg), plasma): 1.585 µg·h/mL | AUC0-∞ ([2]; po(100mg/kg), plasma): 1.622 µg·h/mL | Cmax ([2]; po(100mg/kg), plasma): 0.689 µg/mL | T1/2 ([2]; po(100mg/kg), plasma): 4.91 h | Tmax ([2]; po(100mg/kg), plasma): 0.50 h | Body weight (g) Day 1 of administration [3]: 23.3 ± 0.7 g | Body weight (g) End [3]: 20.9 ± 1.8 g | Colorectal length (cm) [3]: 6.4±0.7 cm | DAI score First day of symptom onset [3]: 0.3±0.2 | HPLC peak RRT 1 (main peak) ([4]; 0 days): 99.466 | related substances (HPLC), RRT 0.99 ([4]; 0 days): 0.023 | related substances (HPLC), RRT 1.05 ([4]; 0 days): 0.046 | related substances (HPLC), RRT 1.08 ([4]; 0 days): 0.029 | HPLC peak RRT 1 (main peak) [4, 5]: 99.415 | related substances (HPLC), RRT 0.99 [4, 5]: 0.026 | related substances (HPLC), RRT 1.05 [4, 5]: 0.066 | related substances (HPLC), RRT 1.08 [4, 5]: 0.057 | related substances (HPLC), RRT 1.09 [4, 5]: 0.436 | HPLC peak RRT 1 (main peak) [4, 6]: 99.416 | related substances (HPLC), RRT 0.99 [4, 6]: 0.027 | related substances (HPLC), RRT 1.05 [4, 6]: 0.061 | related substances (HPLC), RRT 1.08 [4, 6]: 0.049 | related substances (HPLC), RRT 1.09 [4, 6]: 0.447 | HPLC peak RRT 1 (main peak) ([4]; High Temperature 60 °C, 5 Days): 99.393 | related substances (HPLC), RRT 0.99 ([4]; High Temperature 60 °C, 5 Days): 0.032 | related substances (HPLC), RRT 1.05 ([4]; High Temperature 60 °C, 5 Days): 0.070 | related substances (HPLC), RRT 1.08 ([4]; High Temperature 60 °C, 5 Days): 0.035 | related substances (HPLC), RRT 1.09 ([4]; High Temperature 60 °C, 5 Days): 0.431 | HPLC peak RRT 1 (main peak) [4, 7]: 99.394 | related substances (HPLC), RRT 0.99 [4, 7]: 0.035 | related substances (HPLC), RRT 1.05 [4, 7]: 0.080 | related substances (HPLC), RRT 1.08 [4, 7]: 0.057 | related substances (HPLC), RRT 1.09 [4, 7]: 0.434 | HPLC peak RRT 1 (main peak) [4, 8]: 99.351 | related substances (HPLC), RRT 0.54 [4, 8]: 0.03 | related substances (HPLC), RRT 0.99 [4, 8]: 0.052 | related substances (HPLC), RRT 1.05 [4, 8]: 0.056 | related substances (HPLC), RRT 1.08 [4, 8]: 0.025 | related substances (HPLC), RRT 1.09 [4, 8]: 0.426 | related substances (HPLC), RRT 1.29 [4, 8]: 0.024 | HPLC peak RRT 1 (main peak) [4, 9]: 99.017 | related substances (HPLC), RRT 0.54 [4, 9]: 0.09 | related substances (HPLC), RRT 0.75 [4, 9]: 0.031 | related substances (HPLC), RRT 0.85 [4, 9]: 0.026 | related substances (HPLC), RRT 0.87 [4, 9]: 0.100 | related substances (HPLC), RRT 0.91 [4, 9]: 0.041 | related substances (HPLC), RRT 0.99 [4, 9]: 0.067 | related substances (HPLC), RRT 1.05 [4, 9]: 0.068 | related substances (HPLC), RRT 1.08 [4, 9]: 0.082 | related substances (HPLC), RRT 1.09 [4, 9]: 0.437 | related substances (HPLC), RRT 1.29 [4, 9]: 0.040
